The list shows a part of the results, in another mix than the full data. The source made the active and inactive calls.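 How the source made its calls: active means compounds whose percent inhibition of the receptor-coactivator binding signal exceeds about 50% in the single-dose screen (limit read from the data); inactive means the rest.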

Amino acid sequences for entries named in this document (tags omitted).
UniProt Q92731, whole entry: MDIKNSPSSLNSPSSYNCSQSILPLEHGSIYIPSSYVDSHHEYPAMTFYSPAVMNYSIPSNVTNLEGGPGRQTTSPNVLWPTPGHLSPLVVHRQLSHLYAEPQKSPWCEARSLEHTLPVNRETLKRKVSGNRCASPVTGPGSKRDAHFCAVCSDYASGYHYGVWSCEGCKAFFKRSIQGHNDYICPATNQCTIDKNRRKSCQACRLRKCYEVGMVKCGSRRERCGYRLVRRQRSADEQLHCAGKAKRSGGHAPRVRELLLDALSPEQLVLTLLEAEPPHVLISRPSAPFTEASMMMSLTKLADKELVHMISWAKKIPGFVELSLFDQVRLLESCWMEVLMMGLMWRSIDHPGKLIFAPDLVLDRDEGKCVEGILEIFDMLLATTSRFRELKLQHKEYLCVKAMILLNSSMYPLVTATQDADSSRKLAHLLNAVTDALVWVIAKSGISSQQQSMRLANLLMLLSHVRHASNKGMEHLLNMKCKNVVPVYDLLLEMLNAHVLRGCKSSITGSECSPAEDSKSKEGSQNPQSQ

The target in the experiment is Estrogen receptor beta (Homo sapiens) (UniProt Q92731). Kind of experiment: blockers of coactivator peptide binding to ERβ – biochemical, TR-FRET, ERβ LBD, SRC-1 peptide, primary screen (AID 633).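 Further: 0% = receptor plus peptide wells without compound and 100% = peptide-only wells.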 To be noted: TR-FRET ER-beta LBD / SRC1-Cy5 peptide binding; at 25.6 µM; active compounds read high. On the technique in general: Time-resolved FRET reads energy transfer from a long-lived donor to a nearby acceptor.
Turning to `CC1CCN(C(=O)Oc2c(Cl)cc(Cl)c3cccnc23)CC1`, the inhibition is inactive: -4.9%.

What is called inhibition is the change of the read-out against control, counted positive when it falls.

Values taken from PubChem BioAssay AID633 (Emory University Molecular Libraries Screening Center, 2007).
